Literature values, collected in patent publication US20230218571A1 (Thiogenesis Therapeutics, Inc., priority 2020, published 2023).

Settings: human, in vivo; cited from earlier work

CC(C)(CO)[C@@H](O)C(=O)NCCC(=O)NCCSSCCNC(=O)CCNC(=O)[C@H](O)C(C)(C)CO [pantethine]
fate of oral dose: much of the pantethine was excreted unchanged in the stool
